Reference: article PMC12678798, “Discovery of an allosteric binding site for anthraquinones at the human P2X4 receptor” (Nature Communications, 2025)
Changes are numbered by the printed parent chain. Like-named read-outs stand apart in the source and are kept apart here.

Legend:
human wt P2X4 receptor = target: T1, human wt P2X4 receptor (Homo sapiens, UniProt Q99571); test: ATP-induced calcium influx assay, human wt P2X4 receptor in 1321N1 astrocytoma cells; type: cell-based
T1 construct: expressed in transfected cells
T1 sequence (Q99571 1-388): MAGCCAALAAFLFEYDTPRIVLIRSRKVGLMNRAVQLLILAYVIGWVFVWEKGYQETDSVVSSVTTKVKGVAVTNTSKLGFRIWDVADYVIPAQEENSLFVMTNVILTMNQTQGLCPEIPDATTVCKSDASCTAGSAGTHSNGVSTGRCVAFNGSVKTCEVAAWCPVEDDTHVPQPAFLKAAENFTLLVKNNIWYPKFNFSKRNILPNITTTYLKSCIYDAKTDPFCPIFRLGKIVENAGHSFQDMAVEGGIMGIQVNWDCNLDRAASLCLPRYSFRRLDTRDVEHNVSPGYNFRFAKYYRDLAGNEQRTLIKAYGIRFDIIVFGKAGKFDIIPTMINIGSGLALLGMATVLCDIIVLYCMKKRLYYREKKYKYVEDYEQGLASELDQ

[1] = target: T2, human P2X4-E307T receptor mutant (Homo sapiens, UniProt Q99571, E307T); test: ATP-induced calcium influx assay, P2X4-E307T mutant in 1321N1 astrocytoma cells; type: cell-based
T2 construct: expressed in transfected cells
T2 sequence (Q99571 1-388 E307T): T1 sequence (Q99571 1-388) with E307T

[2] = target: T3, chimeric P2X4(P2X2) receptor c10^R301-Q308 (Homo sapiens, UniProt Q99571, A304N/D302K/DEL301-301/E307T/L303I/N306T/Q308T); test: ATP-induced calcium influx assay, chimeric receptor c10 in 1321N1 astrocytoma cells; type: cell-based
T3 construct: expressed in transfected cells; gene synthesis (Geneart), pLVX-IRES-mCherry (bicistronic, mCherry not fused)
T3 sequence (Q99571 with tags, fused parts or gaps DEL301-301/D302K/L303I/A304N/N306T/E307T/Q308T): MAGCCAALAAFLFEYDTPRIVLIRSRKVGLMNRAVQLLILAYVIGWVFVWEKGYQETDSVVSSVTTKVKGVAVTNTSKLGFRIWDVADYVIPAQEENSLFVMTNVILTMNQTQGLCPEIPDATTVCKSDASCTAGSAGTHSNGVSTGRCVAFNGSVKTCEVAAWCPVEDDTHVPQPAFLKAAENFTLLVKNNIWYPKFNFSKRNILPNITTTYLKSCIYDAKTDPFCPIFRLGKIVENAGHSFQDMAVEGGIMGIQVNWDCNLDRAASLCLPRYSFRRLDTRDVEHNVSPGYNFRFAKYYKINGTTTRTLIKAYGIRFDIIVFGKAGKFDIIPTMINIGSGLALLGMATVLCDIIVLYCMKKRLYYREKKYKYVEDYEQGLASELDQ

[3] = target: T4, chimeric P2X4(P2X2) receptor c2-c5^C116-T186 (Homo sapiens, UniProt Q99571, A122H/A137L/A177Q/A181M/D121V/DEL149-175/E183P/G138D/H140L/INS118S/INS148CVPYYQGPSKTCEVFGWCPVEDGASV/INS179G/K127L/K180T/P120R/P176S/S131D/S136E/S141G/S145R/T123N/T124A/T133V/T139M/V125T/V144L); test: cell-based
T4 sequence (Q99571 with tags, fused parts or gaps isoform Q99571-3 INS118S/P120R/D121V/A122H/T123N/T124A/V125T/K127L/S131D/T133V/S136E/A137L/G138D/T139M/H140L/S141G/V144L/S145R/INS148[…]/P149S/A150Q/INS152G/K153T/A154M/E156P): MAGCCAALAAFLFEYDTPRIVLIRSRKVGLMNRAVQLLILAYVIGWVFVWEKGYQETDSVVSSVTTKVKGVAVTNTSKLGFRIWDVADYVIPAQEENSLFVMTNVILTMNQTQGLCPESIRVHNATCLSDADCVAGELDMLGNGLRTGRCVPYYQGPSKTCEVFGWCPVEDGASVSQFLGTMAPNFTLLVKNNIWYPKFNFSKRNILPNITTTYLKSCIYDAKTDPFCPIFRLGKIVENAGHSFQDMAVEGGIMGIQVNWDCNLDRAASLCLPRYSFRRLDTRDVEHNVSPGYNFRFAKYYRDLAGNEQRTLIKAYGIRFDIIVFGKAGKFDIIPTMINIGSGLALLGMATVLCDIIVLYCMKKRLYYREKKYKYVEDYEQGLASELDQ

[4] = target: T5, chimeric P2X4(P2X2) receptor c6^N208-S216 (Homo sapiens, UniProt Q99571, I209R/N208D/S216R/T211D/T212G); test: cell-based
T5 sequence (Q99571 1-388 N208D/I209R/T211D/T212G/S216R): T1 sequence (Q99571 1-388) with N208D, I209R, T211D, T212G, S216R

[5] = target: T6, chimeric P2X4(P2X2) receptor c7^I218-D224 (Homo sapiens, UniProt Q99571, A221E/D220H/I218T/K222A/T223S/Y219F); test: cell-based
T6 sequence (Q99571 1-388 I218T/Y219F/D220H/A221E/K222A/T223S): T1 sequence (Q99571 1-388) with I218T, Y219F, D220H, A221E, K222A, T223S

[6] = target: T7, chimeric P2X4(P2X2) receptor c8^R265-L269 (Homo sapiens, UniProt Q99571, A266P/L269E/R265L); test: cell-based
T7 sequence (Q99571 1-388 R265L/A266P/L269E): T1 sequence (Q99571 1-388) with R265L, A266P, L269E

[7] = target: T8, P2X4-D302I receptor mutant (Homo sapiens, UniProt Q99571, D302I); test: cell-based
T8 sequence (Q99571 1-388 D302I): T1 sequence (Q99571 1-388) with D302I

[8] = target: T9, P2X4-Q308T receptor mutant (Homo sapiens, UniProt Q99571, Q308T); test: cell-based
T9 sequence (Q99571 1-388 Q308T): T1 sequence (Q99571 1-388) with Q308T

Structure (SMILES): Nc1c(S(=O)(=O)O)cc(Nc2ccc(Nc3nc(Cl)nc(Nc4ccccc4S(=O)(=O)O)n3)c(S(=O)(=O)O)c2)c2c1C(=O)c1ccccc1C2=O [Cibacron Blue]
- EC50 (human wt P2X4 receptor): 0.243 µM
- IC50 (human wt P2X4 receptor; wt P2X4, 1321N1 astrocytoma cells, inhibition vs ATP at its EC80, 30 min preincubation, read-out: IC50 ± SEM): 12.1 ± 4.2 µM
- IC50 (human wt P2X4 receptor; wt hP2X4, read-out: pIC50 ± SEM (n value) (converted)): 11 µM
- IC50 ([1]; 1321N1 astrocytoma cells, vs ATP at its EC80, read-out: IC50 ± SEM): 0.0178 ± 0.0047 µM
- IC50 ([1]; read-out: pIC50 ± SEM (n value) (converted)): 0.0166 µM
- IC50 ([2]; IC50 ± SEM, P2X4(P2X2) c10^R301-Q308, 1321N1 astrocytoma cells, vs ATP at its EC80): 0.00476 ± 0.00062 µM
- IC50 ([2]; pIC50 ± SEM (n value), c10^R301-Q308): 0.00513 µM
- IC50 [3]: 8.99 µM
- EC50 [4]: 0.53 µM
- IC50 [4]: 8.6 µM
- IC50 [5]: 23.6 µM
- IC50 ([6]; IC50, c8^R265-L269, ATP at EC80): 20.3 µM
- IC50 ([6]; pIC50 ± SEM (n value), c8^R265-L269): 17.8 µM
- IC50 [7]: 1.42 µM
- IC50 ([8]; IC50, P2X4-Q308T, ATP at EC80): 10.4 µM
- IC50 ([8]; pIC50 ± SEM (n value), P2X4-Q308T): 10 µM
